Biological target: human DGAT2 (Homo sapiens, UniProt Q96PD7)

By UniProt entry, the sequences of proteins in these tests, tags left out.
UniProt Q96PD7, whole entry: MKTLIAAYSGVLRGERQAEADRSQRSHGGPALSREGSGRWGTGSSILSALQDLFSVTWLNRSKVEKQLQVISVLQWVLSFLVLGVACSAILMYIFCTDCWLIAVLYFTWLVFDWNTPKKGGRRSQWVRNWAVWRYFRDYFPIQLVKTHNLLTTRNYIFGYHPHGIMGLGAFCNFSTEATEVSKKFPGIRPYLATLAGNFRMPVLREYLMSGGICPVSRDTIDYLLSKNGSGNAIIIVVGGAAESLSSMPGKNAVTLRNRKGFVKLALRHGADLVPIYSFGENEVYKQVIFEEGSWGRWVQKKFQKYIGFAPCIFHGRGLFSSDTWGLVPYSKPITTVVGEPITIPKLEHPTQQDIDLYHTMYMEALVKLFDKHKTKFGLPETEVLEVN

SMILES: Cc1c(Oc2ncc(Cl)cc2OCC(C)(F)F)ccc2nc(C(=O)NC3(CC(F)(F)F)CCS(=O)(=O)CC3)nn12
- IC50: 636 nM

Reference: US20260174750A1 (Merck Sharp & Dohme LLC, priority 2022, published 2026)
